CycPeptMPDB entries from one study

Source: CycPeptMPDB (Li et al. 2023), which took these values from Townsend et al. 2020, doi:10.26434/chemrxiv.13335941.v1.

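Lipid, pH, incubation time, direction and concentration are not recorded in the data file. Other peptides of the study may be missing here. Entries at the database's floor value (log10 P of -10) are not listed.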

PAMPA measures passive passage through an artificial lipid membrane. P is given in units of 10^-6 cm/s (from log10 values with two decimals); larger means faster passage.

SMILES,PAMPA (10^-6 cm/s)
CC(C)C[C@@H]1NC(=O)[C@H]2CCCN2C(=O)[C@@H](CC(C)C)NC(=O)[C@H](CC(C)C)NC(=O)[C@@H](C)NC(=O)[C@H]2CCCN2C(=O)[C@H](Cc2ccccc2)NC1=O,0.014
CCCN1CC(=O)N[C@@H](CC(C)C)C(=O)N(Cc2ccccc2)CC(=O)N2CCC[C@@H]2C(=O)N[C@@H](CC(C)C)C(=O)N[C@@H](Cc2ccccc2)C1=O,1.3
CC(C)C[C@@H]1C(=O)N[C@@H](Cc2ccccc2)C(=O)N2CCC[C@@H]2C(=O)N[C@H](C)C(=O)N(C)[C@H](CC(C)C)C(=O)N[C@H](CC(C)C)C(=O)N2CCC[C@@H]2C(=O)N1C,1.9
CC(C)C[C@@H]1NC(=O)[C@@H](CC(C)C)NC(=O)[C@H](C)N(C)C(=O)[C@H]2CCCN2C(=O)[C@H](Cc2ccccc2)NC(=O)CN(Cc2ccccc2)C(=O)[C@H]2CCCN2C1=O,3.5
CC(C)C[C@@H]1C(=O)N[C@H](CC(C)C)C(=O)N2CCC[C@H]2C(=O)N(C)[C@@H](CC(C)C)C(=O)N[C@@H](Cc2ccccc2)C(=O)N2CCC[C@H]2C(=O)N[C@@H](Cc2ccccc2)CC(=O)N1C,3
CCCN1CC(=O)N(C)[C@H](CC(C)C)C(=O)N[C@@H](CC(C)C)C(=O)N2CCC[C@H]2C(=O)N(Cc2ccccc2)CC(=O)N[C@@H](Cc2ccccc2)C(=O)N2CCC[C@@H]2C1=O,11
CCCN1CC(=O)N(C)[C@@H](CC(C)C)C(=O)N(C)[C@@H](CC(C)C)C(=O)N2CCC[C@H]2C(=O)N(Cc2ccccc2)CC(=O)N[C@@H](Cc2ccccc2)C1=O,13
CC(C)C[C@@H]1NC(=O)[C@@H]2CCCN2C(=O)[C@@H](CC(C)C)N(C)C(=O)CN(Cc2ccccc2)C(=O)[C@H](C)N(C)C(=O)[C@H]2CCCN2C(=O)[C@H](Cc2ccccc2)NC1=O,1.1
CC(C)C[C@@H]1NC(=O)[C@@H](CC(C)C)N(C)C(=O)[C@@H](C)N(C)C(=O)[C@H]2CCCN2C(=O)[C@H](Cc2ccccc2)NC(=O)[C@H](CC(C)C)N(C)C(=O)[C@@H]2CCCN2C1=O,6.8
CC(C)C[C@H]1NC(=O)[C@H](C)N(C)C(=O)[C@H](Cc2ccccc2)NC(=O)CN(Cc2ccccc2)C(=O)[C@@H]2CCCN2C(=O)[C@@H](CC(C)C)NC1=O,7.8
CC(C)C[C@@H]1NC(=O)[C@H]2CCCN2C(=O)CN(Cc2ccccc2)C(=O)[C@H](CC(C)C)N(C)C(=O)C[C@H](Cc2ccccc2)NC(=O)[C@H]2CCCN2C(=O)[C@H](Cc2ccccc2)NC1=O,1.2
CCCN1CC(=O)N(C)[C@H](CC(C)C)C(=O)N[C@H](CC(C)C)C(=O)N2CCC[C@@H]2C(=O)N[C@H](CC(C)C)C(=O)N[C@@H](Cc2ccccc2)C1=O,1.7

Extract of 2 entries:

SMILES	PAMPA (10^-6 cm/s)
CCCN1CC(=O)N[C@@H](CC(C)C)C(=O)N(Cc2ccccc2)CC(=O)N2CCC[C@@H]2C(=O)N[C@@H](CC(C)C)C(=O)N[C@@H](Cc2ccccc2)C1=O	1.3
CC(C)C[C@@H]1C(=O)N[C@H](CC(C)C)C(=O)N2CCC[C@H]2C(=O)N(C)[C@@H](CC(C)C)C(=O)N[C@@H](Cc2ccccc2)C(=O)N2CCC[C@H]2C(=O)N[C@@H](Cc2ccccc2)CC(=O)N1C	3